These results are taken from ChEMBL document CHEMBL1133182, “Biosensor analysis of the interaction between immobilized human serum albumin and drug compounds for prediction of human serum albumin binding levels” (J Med Chem, 2000).

Chains of the proteins cited; added tags and fusions are not shown.
UniProt P02768, whole entry: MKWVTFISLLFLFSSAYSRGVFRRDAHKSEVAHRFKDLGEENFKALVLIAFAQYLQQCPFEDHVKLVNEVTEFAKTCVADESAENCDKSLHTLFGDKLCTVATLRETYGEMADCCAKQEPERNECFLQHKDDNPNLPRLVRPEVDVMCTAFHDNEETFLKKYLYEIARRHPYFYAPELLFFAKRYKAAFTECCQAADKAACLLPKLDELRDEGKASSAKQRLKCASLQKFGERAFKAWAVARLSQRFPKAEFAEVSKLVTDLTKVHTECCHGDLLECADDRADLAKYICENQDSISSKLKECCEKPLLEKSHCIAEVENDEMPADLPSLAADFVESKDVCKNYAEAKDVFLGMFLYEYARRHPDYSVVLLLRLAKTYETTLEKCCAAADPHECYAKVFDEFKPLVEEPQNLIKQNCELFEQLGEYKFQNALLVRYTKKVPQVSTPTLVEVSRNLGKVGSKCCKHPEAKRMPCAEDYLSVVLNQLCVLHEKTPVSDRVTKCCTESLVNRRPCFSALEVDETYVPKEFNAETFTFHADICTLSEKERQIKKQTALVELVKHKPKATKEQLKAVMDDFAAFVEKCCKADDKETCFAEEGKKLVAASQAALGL

Each structure is given as a SMILES string.

In the series the target is Albumin (Homo sapiens, UniProt P02768). As to the kind of experiment: The ability concentration.).

The compound `O=C1NC(=O)C(c2ccccc2)(c2ccccc2)N1` [PHENYTOIN] had a Binding of 63.4%.
